Results published in ChEMBL document CHEMBL1128444 (J Med Chem, 1995).

Sequences of proteins named here, by UniProt entry; tags and fusion partners are left off.
UniProt P31652, whole entry: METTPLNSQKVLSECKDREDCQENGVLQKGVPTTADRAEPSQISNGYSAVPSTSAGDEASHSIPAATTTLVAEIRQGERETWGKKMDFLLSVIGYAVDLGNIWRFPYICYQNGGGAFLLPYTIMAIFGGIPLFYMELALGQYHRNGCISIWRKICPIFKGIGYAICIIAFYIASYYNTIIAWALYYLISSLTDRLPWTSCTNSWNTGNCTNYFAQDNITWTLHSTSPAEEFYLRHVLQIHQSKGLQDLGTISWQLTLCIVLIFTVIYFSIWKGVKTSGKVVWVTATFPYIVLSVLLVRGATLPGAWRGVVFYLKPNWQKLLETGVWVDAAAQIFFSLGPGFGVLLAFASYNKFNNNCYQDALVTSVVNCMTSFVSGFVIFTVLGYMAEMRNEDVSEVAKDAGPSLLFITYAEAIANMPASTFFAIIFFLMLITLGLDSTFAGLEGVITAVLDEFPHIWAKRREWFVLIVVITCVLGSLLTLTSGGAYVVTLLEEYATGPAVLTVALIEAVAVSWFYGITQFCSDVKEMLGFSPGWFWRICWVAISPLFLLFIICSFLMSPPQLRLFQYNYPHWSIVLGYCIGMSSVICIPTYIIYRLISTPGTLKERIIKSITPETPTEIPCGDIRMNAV

Legend:
[1] = molecular target: T1, Sodium-dependent serotonin transporter (Rattus norvegicus, UniProt P31652); assay: Ratio of Ki value towards Serotonin transporter to that of dopamine transporter
Summary of the method: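 Rat [3H]uptake into crude synaptosomes in modified Krebs phosphate buffer, pH 7.4, with dextrose, ascorbic acid and 10 μM pargyline, 3 min at 30 °C, filtered and scintillation counted. DA: male Sprague–Dawley striatum, 0.5 nM [3H]dopamine, 1 μM mazindol nonspecific. 5-HT: midbrain, 5 nM [3H]serotonin, 1 μM citalopram nonspecific. Ki by Cheng–Prusoff; 5-HT Ki/DA Ki; 3–4 experiments in triplicate.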

[2] = molecular target: T1, Sodium-dependent serotonin transporter; assay: Ratio of IC50 value against Serotonin transporter to that of dopamine transporter

COC(=O)[C@H]1[C@@H](OC(=O)c2ccccc2)C[C@@H]2CC[C@H]1N2C [COCAINE]
Ki [1]: 112 nM

COC(=O)[C@@H]1C2CC[C@H](C[C@@H]1c1ccccc1)N2C
IC50 [2]: 1960 nM | Ki [1]: 173 nM
